Source: patent EP2626066A1, “Combination therapy comprising selective VEGFR-2 inhibitors and MEK inhibitors” (Max-Planck-Gesellschaft zur Förderung der Wissenschaften …, priority 2012, dated 2013)

Columns and labels:
[1] = test system: VEGFR2; settings: H1975 expressing ZD6474 resistance mutation of VEGFR2; in vitro
[2] = test system: H1975
Procedure: (§1) All animal procedures were approved by the local animal protection committee and the local authorities. H1975, H441 and H1650 cells (5x10^6 cells) were injected subcutaneously into male nude mice. […] Mice were treated daily by oral gavage of ZD6474 (50 mg/kg, solved in vehicle), PD0325901 (12mg/kg, dissolved in propylene glycol:water (1:1)), the combination of ZD6474 (50 mg/kg) and PD0325901 (12mg/kg) or vehicle detergent alone. Tumor size of tumors expressing high levels of VEGFR2 (H441, H1975) and tumor with low expression of VEGFR2 (H1650) were monitored measuring perpendicular diameters.
(§2) All animal procedures were approved by the local animal protection committee and the local authorities. High VEGFR2 expressing tumor cell H1975 and H441 (5x10^6 cells), and very low VEGFR2 expressing cells H1650 (5x10^6 cells) were injected subcutaneously into male nude mice. […] Mice were treated daily by oral gavage of ZD6474 (50 mg/kg, solved in vehicle), PD0325901 (12mg/kg, dissolved in propylene glycol:water (1:1)), the combination of ZD6474 (50 mg/kg) and PD0325901 (12mg/kg) or vehicle detergent alone. Tumor size of tumors expressing high levels of VEGFR2 (H441, H1975) and tumor with low expression of VEGFR2 (H1650) were monitored during treatment measuring perpendicular diameters.

[3] = test system: H1650; settings: H1650, very low VEGFR2; daily oral gavage ZD6474 50 mg/kg, PD0325901 12mg/kg; start at about 50mm^3; Fig. 10
Procedure: as §1, §2

[4] = test system: H441; settings: H441, high VEGFR2; daily oral gavage ZD6474 50 mg/kg, PD0325901 12mg/kg; start at about 50mm^3; Fig. 10
Procedure: as §1, §2

[5] = test system: H441 cells; assay: VEGF secretion ELISA assay, H441 cells; assay type: cell-based, human
Procedure: Cells were either treated with the indicated compounds or DMSO alone. After 4 hours cells were stimulated with 40 ng/ml of VEGF165, or incubated in medium containing DMSO only. Cells were then washed twice with PBS and supplemented with serum-free medium and allowed to secrete VEGF for 48 hours. Secretion of VEGF into cell culture supernatants was measured by Human VEGF Quantikine Kit (R&D Systems) according to manufacturer's instructions.

[6] = test system: pERK; settings: in vitro, after VEGF stimulation had reduced it; Fig. 1c
[7] = test system: H441 cells; settings: Figure 4

COc1cc2c(Nc3ccc(Br)cc3F)ncnc2cc1OCC1CCN(C)CC1 [Vandetanib, N-(4-bromo-2-fluorophenyl)-6-methoxy-7-[(1-methylpiperidin-4-yl)methoxy]quinazolin-4-amine]
ZD6474-mediated VEGFR2-dephosphorylation [1]: abolished | tumor volume ([2]; H1975, high VEGFR2, daily oral gavage ZD6474 50 mg/kg, PD0325901 12mg/kg, start at about 50mm^3, Fig. 10): did not reduce the tumor volume | tumor growth ([2]; mice with established tumors, Fig. 1b): inhibited tumor growth but failed to induce tumor regression | tumor vessel density ([2]; resected tumors, ZD6474 (75mg/kg) per Figure 8): strong reduction | establishment of tumors in vivo ([2]; treatment simultaneous to tumor inoculation, Fig. 1e): completely abrogated | tumor volume [3]: almost comparable to the non-treated control | tumor volume [4]: did not reduce the tumor volume | VEGF secretion under hypoxic conditions ([5]; ZD6474 (1µM), hypoxia (1% O2), Figure 6): inhibits VEGF secretion | VEGF-induced VEGF secretion ([5]; stimulation with VEGF, Zactima 1µM, Rapamycin 250nM): blunted | pERK signaling [6]: again increased | incorporation of BRDU as marker for cellular replication [7]: not changed
